The text below walks through data of patent publication US20250114473A1, “COMPOUND FOR CONJUGATION, CONJUGATE AND PHARMACEUTICAL COMPOSITION COMPRISING THE SAME” (priority 2023, published 2025).

By IC50 is commonly meant the midpoint of a concentration-inhibition curve. Low values mean greater potency in that assay, high ones weaker potency in that assay.

Common to all, as to experiment: Cell toxicity testing of moiety-drug conjugates (CCK-8)
Assay type in all cases: cell-based
Conditions in all cases: 0-500 nM

The subject of assay [1] is MDA-MB-231 (HER2−). As to the method:
(§1) The experiment involved optimizing seeding densities (1.5×10^3 to 1.5×10^4 cells/well) for each cell line (SK-BR-3, MCF-7, MDA-MB-231, MDA-MB-436) in 90 IL, of culture medium per well in a 96-well plate for 2-hour incubation. Next, 10 μL of a series of diluted ADC solutions (0-500 nM) were added to each well. The concentration of each ADC solution and measurements at four time points (24, 48, 72, and 96 hours) were conducted in triplicate. […] Data analysis was performed with GraphPad Prism 8.0.1, employing a four-parameter logistic curve-fit program.

Assay [2] relates to MDA-MB-436 (HER2−). As to the method: as §1
Assay [3] has as its system SK-BR-3 (HER2 3+). On the procedure:
as §1

Assay [4] has as its system MCF-7 (HER2 1+). On the procedure: as §1

As for Enhertu (EU), the values for the IC50 in assay [1], in assay [2] and in assay [3] were 183 nM, greater than 250 nM and 0.222 nM, respectively.
For the substance Kadcyla (EU) [reference compound], the IC50 in assay [4] came out at 27.8 nM; in assay [1] it was 81.8 nM; in assay [2], 47.2 nM; in assay [3], 0.113 nM.
